Data published in ChEMBL document CHEMBL4330064, “Phytoestrogens and their synthetic analogues as substrate mimic inhibitors of CYP1B1” (Eur J Med Chem, 2019).

Target: T1, Cytochrome P450 1B1 (Homo sapiens, UniProt Q16678)
T1 sequence (Q16678 whole entry): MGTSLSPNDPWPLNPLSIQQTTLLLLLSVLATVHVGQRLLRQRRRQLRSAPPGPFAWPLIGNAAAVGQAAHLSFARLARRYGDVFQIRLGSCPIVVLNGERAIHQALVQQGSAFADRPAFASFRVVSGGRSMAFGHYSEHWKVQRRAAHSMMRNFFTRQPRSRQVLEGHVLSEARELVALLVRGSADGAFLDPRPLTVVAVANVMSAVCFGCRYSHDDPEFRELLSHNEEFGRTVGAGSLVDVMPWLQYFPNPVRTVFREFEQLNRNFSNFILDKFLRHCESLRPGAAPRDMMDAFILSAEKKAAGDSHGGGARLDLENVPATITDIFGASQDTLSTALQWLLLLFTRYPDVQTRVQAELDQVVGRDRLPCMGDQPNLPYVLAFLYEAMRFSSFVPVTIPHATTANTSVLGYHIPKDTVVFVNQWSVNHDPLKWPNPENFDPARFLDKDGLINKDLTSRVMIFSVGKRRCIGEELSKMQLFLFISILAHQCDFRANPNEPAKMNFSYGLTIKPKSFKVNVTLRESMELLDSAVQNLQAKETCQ
Test: Inhibition of human CYP1B1 using ethoxyresorufin as substrate preincubated for 3 mins followed by NADPH addition measured after 10 mins by EROD assay

Ki: 3 nM
Structure (SMILES): COc1cc(/C=C/c2ccc(OC)cc2OC)cc(OC)c1
